# Assay results as given in patent EP4847505A1, “4-METHYLSULFONYL-SUBSTITUTED PIPERIDINE UREA COMPOUNDS” (dated 2026).
# Chains of the proteins cited; added tags and fusions are not shown.
# UniProt Q9BE39, whole entry: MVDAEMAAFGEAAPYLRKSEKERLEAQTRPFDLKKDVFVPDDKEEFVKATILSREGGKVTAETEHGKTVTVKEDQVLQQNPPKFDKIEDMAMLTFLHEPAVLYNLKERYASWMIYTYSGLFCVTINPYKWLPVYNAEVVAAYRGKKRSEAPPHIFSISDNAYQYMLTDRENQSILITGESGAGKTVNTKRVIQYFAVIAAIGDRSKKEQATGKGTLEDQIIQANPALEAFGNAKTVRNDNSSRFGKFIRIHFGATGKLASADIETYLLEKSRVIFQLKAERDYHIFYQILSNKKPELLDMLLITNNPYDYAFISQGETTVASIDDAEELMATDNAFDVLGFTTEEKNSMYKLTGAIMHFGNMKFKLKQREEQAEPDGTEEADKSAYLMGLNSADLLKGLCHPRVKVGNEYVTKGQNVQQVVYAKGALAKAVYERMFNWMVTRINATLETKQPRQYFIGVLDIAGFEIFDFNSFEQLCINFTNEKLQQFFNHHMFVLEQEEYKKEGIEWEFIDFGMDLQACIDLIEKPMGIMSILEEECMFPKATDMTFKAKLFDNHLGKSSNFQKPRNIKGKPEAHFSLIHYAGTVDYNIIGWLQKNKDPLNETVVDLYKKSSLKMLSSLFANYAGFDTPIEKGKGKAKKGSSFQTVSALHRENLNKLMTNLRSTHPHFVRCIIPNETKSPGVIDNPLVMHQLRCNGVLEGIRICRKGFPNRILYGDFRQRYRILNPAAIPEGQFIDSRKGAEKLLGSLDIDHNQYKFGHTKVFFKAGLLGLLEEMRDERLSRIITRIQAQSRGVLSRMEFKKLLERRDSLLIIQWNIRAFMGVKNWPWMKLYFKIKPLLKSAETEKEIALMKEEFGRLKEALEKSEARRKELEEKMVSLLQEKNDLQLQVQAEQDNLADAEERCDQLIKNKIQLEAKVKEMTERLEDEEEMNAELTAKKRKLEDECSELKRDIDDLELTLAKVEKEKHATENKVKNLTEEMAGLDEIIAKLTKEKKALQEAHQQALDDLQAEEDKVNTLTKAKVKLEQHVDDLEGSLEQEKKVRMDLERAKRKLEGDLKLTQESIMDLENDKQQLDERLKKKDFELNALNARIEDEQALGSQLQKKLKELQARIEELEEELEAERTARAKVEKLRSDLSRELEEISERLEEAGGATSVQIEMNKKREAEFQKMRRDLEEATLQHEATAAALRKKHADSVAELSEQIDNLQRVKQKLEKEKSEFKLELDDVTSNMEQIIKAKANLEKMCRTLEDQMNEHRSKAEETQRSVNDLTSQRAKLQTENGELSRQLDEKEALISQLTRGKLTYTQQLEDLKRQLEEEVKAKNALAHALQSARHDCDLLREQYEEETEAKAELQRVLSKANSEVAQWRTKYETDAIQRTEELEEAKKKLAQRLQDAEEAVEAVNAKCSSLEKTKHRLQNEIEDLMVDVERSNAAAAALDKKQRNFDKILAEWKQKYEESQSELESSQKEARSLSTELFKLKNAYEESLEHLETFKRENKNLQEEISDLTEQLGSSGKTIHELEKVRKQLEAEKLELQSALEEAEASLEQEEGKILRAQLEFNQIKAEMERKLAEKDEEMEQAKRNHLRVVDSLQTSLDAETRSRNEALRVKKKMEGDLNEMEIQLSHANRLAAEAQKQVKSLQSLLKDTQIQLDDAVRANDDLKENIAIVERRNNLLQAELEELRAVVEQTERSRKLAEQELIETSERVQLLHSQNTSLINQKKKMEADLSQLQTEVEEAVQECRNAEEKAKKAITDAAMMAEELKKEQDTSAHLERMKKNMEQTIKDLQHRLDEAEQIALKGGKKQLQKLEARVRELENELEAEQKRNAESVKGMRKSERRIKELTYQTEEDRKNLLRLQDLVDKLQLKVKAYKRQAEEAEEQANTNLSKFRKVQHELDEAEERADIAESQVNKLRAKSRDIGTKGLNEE
# UniProt P85100, whole entry partner: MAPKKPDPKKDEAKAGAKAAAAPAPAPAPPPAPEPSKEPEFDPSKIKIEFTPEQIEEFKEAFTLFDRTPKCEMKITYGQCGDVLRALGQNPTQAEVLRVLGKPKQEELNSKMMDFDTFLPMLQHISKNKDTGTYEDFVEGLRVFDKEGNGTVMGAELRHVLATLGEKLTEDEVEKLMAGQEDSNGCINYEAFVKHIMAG
# UniProt Q3SZE5, whole entry partner: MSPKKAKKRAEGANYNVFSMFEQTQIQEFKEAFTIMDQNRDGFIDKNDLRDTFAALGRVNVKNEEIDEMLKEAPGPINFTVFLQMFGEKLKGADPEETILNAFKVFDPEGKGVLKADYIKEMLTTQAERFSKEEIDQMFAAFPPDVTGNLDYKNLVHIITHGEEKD
# Biological target: bovine cardiac myosin (Bos taurus, UniProt Q9BE39)
# Test: Myosin activation assay (PK/LDH-coupled ATPase, bovine cardiac myofibrils)
# Conditions: concentration at which the total response is increased by twenty percent
# Protocol: Small molecule agents were assessed for their ability to activate the enzymatic activity of bovine cardiac myosin using a biochemical assay that couples the release of ADP (adenosine diphosphate) from cardiac myosin to an enzymatic coupling system consisting of pyruvate kinase and lactate dehydrogenase (PK/LDH) and monitoring the absorbance decrease of NADH (at 340 nm) as a function of time. PK converts ADP to ATP (adenosine triphosphate) by converting PEP (phosphoenolpyruvate) to pyruvate. Pyruvate is then converted to lactate by LDH by converting NADH (nicotinamide adenine dinucleotide) to NAD (oxidized nicotinamide adenine dinucleotide). The source of cardiac myosin was from bovine heart in the form of skinned myofibrils. Prior to testing small molecule agents, the bovine myofibrils were assessed for their calcium responsiveness and the calcium concentration that achieves either a 50% (pCa50 or pCa = ~ 6) or < 5% (pCa = 10) activation of the myofibril system was chosen as the final condition for assessing the activation activity of the small molecule agents. All enzymatic activity was measured in a buffered solution containing 12 mM PIPES (piperazine-N,N'-bis(2-ethanesulfonic acid), 2 mM magnesium chloride at pH 6.8 (PM12 buffer). Final assay conditions were 1 mg/mL of bovine cardiac myofibrils, 0.4 mM PK/LDH, 50 uM ATP, 0.1 mg/mL BSA (bovine serum albumin), 10 ppm antifoam, 2 mM BME, 0.5 mM NADH, 1.5 mM PEP at the desired free calcium concentration required to achieve either 50% or < 5% activation of the myofibrils.
# A dilution series of compound was created in DMSO such that the final desired concentration of compound would be achieved in a volume of 100 µL with a fixed DMSO concentration of 3.3% (v/v). Typically a 1 µL of the dilution series was added to a 384 well plate to achieve a 10 point dose response. Following the addition of 14 µL of a solution containing bovine cardiac myofibrils, PK/LDH and a solution of calcium (that achieved the desired activation), the enzymatic reaction was started with the addition of 15 µL of a solution containing ATP, PEP and NADH. The reaction progress was followed in a PerkinElmer Envision plate reader at ambient temperature using clear bottom plates. The plate reader was configured to read absorbance at 340 nm in kinetics mode for 15 minutes. Data were recorded as the slope of the absorbance response to time. The slopes of the absorbance response as a function of time were normalized to slopes on the plate containing DMSO. This normalized rate was then plotted as a function of small molecule concentration and the data was fitted to a four-parameter fit using EXCEL XLfit. The concentration at which the total response is increased by twenty or fifty percent is reported as AC20 or AC50. […] Table 2. Myosin Activation of Selected Compoundsa
row,Structure (SMILES),Myosin Activation (AC20)
1,Cn1cc(S(=O)(=O)C(C)(C)C2CCN(C(=O)Nc3ccnc(F)c3)CC2)c(C(F)F)n1,+++ (+++ represents myosin activation value AC20 < 2 µM)
2,CC(C)(C1CCN(C(=O)Nc2ccnnc2)CC1)S(=O)(=O)c1ccccc1C#N,+ (+ represents myosin activation value AC20 > 5 µM)
3,Cn1ccc(NC(=O)N2CCC(C(C)(C)S(=O)(=O)c3cccc(F)c3)CC2)n1,+ (+ represents myosin activation value AC20 > 5 µM)
4,Cc1cc(S(=O)(=O)C(F)(F)C2CCN(C(=O)Nc3ccnnc3)CC2)n(C2CC2)n1,+ (+ represents myosin activation value AC20 > 5 µM)
5,CC(C)(C1CCN(C(=O)Nc2ccnnc2)CC1)S(=O)(=O)c1ccc(C#N)cc1,++ (++ represents myosin activation value AC20 from 2 µM - 5 µM)
6,Cc1ccc(S(=O)(=O)C(F)(F)C2CCN(C(=O)Nc3ccnnc3)CC2)cn1,++ (++ represents myosin activation value AC20 from 2 µM - 5 µM)
7,CC(C)(C1CCN(C(=O)Nc2cc[nH]n2)CC1)S(=O)(=O)c1cccc(F)c1,+ (+ represents myosin activation value AC20 > 5 µM)
8,CC(C)(C1CCN(C(=O)Nc2nccs2)CC1)S(=O)(=O)c1cccc(F)c1,+ (+ represents myosin activation value AC20 > 5 µM)
9,O=C(Nc1ccncc1)N1CCC(C2(S(=O)(=O)c3cccc(F)c3)CCC2)CC1,+++ (+++ represents myosin activation value AC20 < 2 µM)
10,COc1ccc(NC(=O)N2CCC(C(C)(C)S(=O)(=O)c3cccc(F)c3)CC2)cn1,+ (+ represents myosin activation value AC20 > 5 µM)
11,O=C(Nc1ccnnc1)N1CCC(C(F)(F)S(=O)(=O)c2cccc3c2COC3)CC1,++ (++ represents myosin activation value AC20 from 2 µM - 5 µM)
12,O=C(Nc1ccncc1)N1CCC(C2(S(=O)(=O)c3ccc(OC(F)(F)F)cc3)CC2)CC1,+++ (+++ represents myosin activation value AC20 < 2 µM)
13,C[C@](F)(C1CCN(C(=O)Nc2ccc(CO)nc2)CC1)S(=O)(=O)c1cccc(F)c1,+ (+ represents myosin activation value AC20 > 5 µM)
14,COc1ccc(S(=O)(=O)C(C)(F)C2CCN(C(=O)Nc3ccon3)CC2)cn1 (stereo not drawn),++ (++ represents myosin activation value AC20 from 2 µM - 5 µM)
15,Cn1nc(C(F)(F)F)cc1S(=O)(=O)C(C)(F)C1CCN(C(=O)Nc2ccnc(F)c2)CC1 (stereo not drawn),++ (++ represents myosin activation value AC20 from 2 µM - 5 µM)
16,N#Cc1ccccc1S(=O)(=O)C1(C2CCN(C(=O)Nc3ccnnc3)CC2)CC1,++ (++ represents myosin activation value AC20 from 2 µM - 5 µM)
17,N#Cc1cc(C(F)(F)F)ccc1S(=O)(=O)C(F)(F)C1CCN(C(=O)Nc2ccnnc2)CC1,+++ (+++ represents myosin activation value AC20 < 2 µM)
18,O=C(Nc1ccnnc1)N1CCC(C2(S(=O)(=O)c3cc(F)cc(F)c3)CCC2)CC1,+++ (+++ represents myosin activation value AC20 < 2 µM)
19,Cn1cc(S(=O)(=O)[C@@](C)(F)C2CCN(C(=O)Nc3cccnc3)CC2)c(C(F)F)n1,++ (++ represents myosin activation value AC20 from 2 µM - 5 µM)
20,CC(F)(C1CCN(C(=O)Nc2cnoc2)CC1)S(=O)(=O)c1cccc(F)c1 (stereo not drawn),+++ (+++ represents myosin activation value AC20 < 2 µM)
21,Cn1nc(C(F)F)cc1S(=O)(=O)C(C)(C)C1CCN(C(=O)Nc2ccc(F)nc2)CC1,++ (++ represents myosin activation value AC20 from 2 µM - 5 µM)
22,COc1ccc(Cl)c(S(=O)(=O)C(F)(F)C2CCN(C(=O)Nc3ccnnc3)CC2)c1,+++ (+++ represents myosin activation value AC20 < 2 µM)
23,Cn1cc(S(=O)(=O)C(C)(C)C2CCN(C(=O)Nc3ccc(F)nc3)CC2)c(C(F)F)n1,++ (++ represents myosin activation value AC20 from 2 µM - 5 µM)
24,Cn1nccc1S(=O)(=O)C1(C2CCN(C(=O)Nc3cnns3)CC2)CCC1,+++ (+++ represents myosin activation value AC20 < 2 µM)

row,Structure (SMILES),Myosin Activation (AC20)
1,Cn1cc(S(=O)(=O)C(F)(F)C2CCN(C(=O)Nc3ccc(C#N)nc3)CC2)c(C(F)F)n1,+ (+ represents myosin activation value AC20 > 5 µM)
2,Cn1nc(C(F)(F)F)cc1S(=O)(=O)C(C)(F)C1CCN(C(=O)Nc2ccon2)CC1 (stereo not drawn),++ (++ represents myosin activation value AC20 from 2 µM - 5 µM)
3,Cn1cnc(S(=O)(=O)C(F)(F)C2CCN(C(=O)Nc3ccnnc3)CC2)c1,+ (+ represents myosin activation value AC20 > 5 µM)
4,CC(F)(C1CCN(C(=O)Nc2ccnc(F)c2)CC1)S(=O)(=O)c1cccc(F)c1 (stereo not drawn),++ (++ represents myosin activation value AC20 from 2 µM - 5 µM)
5,Cc1ccc(F)cc1S(=O)(=O)C(F)(F)C1CCN(C(=O)Nc2ccnnc2)CC1,++ (++ represents myosin activation value AC20 from 2 µM - 5 µM)
6,Cn1cc(S(=O)(=O)C(F)(F)C2CCN(C(=O)Nc3ccc(F)nc3)CC2)c(C(F)F)n1,+ (+ represents myosin activation value AC20 > 5 µM)
7,CC(F)(C1CCN(C(=O)Nc2cncc(F)c2)CC1)S(=O)(=O)c1cccc(F)c1 (stereo not drawn),+ (+ represents myosin activation value AC20 > 5 µM)
8,Cc1ccccc1S(=O)(=O)CC1CCN(C(=O)Nc2ccncc2)CC1,+ (+ represents myosin activation value AC20 > 5 µM)
9,CC(F)(C1CCN(C(=O)Nc2ccnc(F)c2)CC1)S(=O)(=O)c1ccc(C(F)(F)F)cc1 (stereo not drawn),++ (++ represents myosin activation value AC20 from 2 µM - 5 µM)
10,Cn1nc(Cl)cc1S(=O)(=O)C(C)(C)C1CCN(C(=O)Nc2ccnnc2)CC1,+++ (+++ represents myosin activation value AC20 < 2 µM)
11,Cc1cc(S(=O)(=O)C(C)(C)C2CCN(C(=O)Nc3ccncc3)CC2)n(C)n1,+++ (+++ represents myosin activation value AC20 < 2 µM)
12,O=C(Nc1cncs1)N1CCC(C2(S(=O)(=O)c3cccc(F)c3)CC2)CC1,+++ (+++ represents myosin activation value AC20 < 2 µM)
13,Cn1nc(C(F)F)cc1S(=O)(=O)C(C)(F)C1CCN(C(=O)Nc2ccc(F)nc2)CC1 (stereo not drawn),+ (+ represents myosin activation value AC20 > 5 µM)
14,C[C@](F)(C1CCN(C(=O)Nc2ccc(C#N)nc2)CC1)S(=O)(=O)c1cccc(F)c1,++ (++ represents myosin activation value AC20 from 2 µM - 5 µM)
15,C[C@@](F)(C1CCN(C(=O)Nc2ccnnc2)CC1)S(=O)(=O)c1cccc(F)c1,+ (+ represents myosin activation value AC20 > 5 µM)
16,CC(F)(C1CCN(C(=O)Nc2nnco2)CC1)S(=O)(=O)c1cccc(F)c1 (stereo not drawn),+ (+ represents myosin activation value AC20 > 5 µM)
17,CC(C)(C1(F)CCN(C(=O)Nc2ccnnc2)CC1)S(=O)(=O)c1cccc(F)c1,++ (++ represents myosin activation value AC20 from 2 µM - 5 µM)
18,Cn1nccc1S(=O)(=O)C1(C2CCN(C(=O)Nc3ccnnc3)CC2)CCC1,+++ (+++ represents myosin activation value AC20 < 2 µM)
19,O=C(Nc1ccncc1)N1CCC(C2(S(=O)(=O)c3cccc(F)c3)CC2)CC1,+++ (+++ represents myosin activation value AC20 < 2 µM)
20,O=C(Nc1cnns1)N1CCC(C(F)(F)S(=O)(=O)c2cccc(F)c2)CC1,+ (+ represents myosin activation value AC20 > 5 µM)
21,CC(C)(C1CCN(C(=O)Nc2ccncc2Cl)CC1)S(=O)(=O)c1cccc(F)c1,+ (+ represents myosin activation value AC20 > 5 µM)
22,CC(C)(C)OC(=O)n1cc(NC(=O)N2CCC(C(C)(F)S(=O)(=O)c3cccc(F)c3)CC2)cn1 (stereo not drawn),+ (+ represents myosin activation value AC20 > 5 µM)
23,Cn1nccc1NC(=O)N1CCC(C(C)(C)S(=O)(=O)c2cccc(F)c2)CC1,+ (+ represents myosin activation value AC20 > 5 µM)
24,C[C@@](F)(C1CCN(C(=O)Nc2ccon2)CC1)S(=O)(=O)c1cccc(F)c1,+ (+ represents myosin activation value AC20 > 5 µM)
